Measured values from patent US20210022342A1, “THE USE OF SAFENERS TO IMPROVE RESISTANCE OF RICE CROP TO HERBICIDES” (Adama Agan Ltd., priority 2018, published 2021).

Experiments:
[1] = system: wild type rice (Non-Traited Rice); test: Quizalofop dose response with or without isoxadifen, regrowth, wild type rice; assay type: in vivo; conditions: for Calculated effect of Safener (relative fresh weight re-growth): difference with and without isoxadifen on Non-Traited Rice
Description: (§1) The quizalofop (in rates of 0, 2, 6 18, 54 and 162 g/ha) was applied on wild type rice and herbicide resistance rice in the presence or absence of safener (isoxadifen at 100 g/ha).
(§2) Four days after treatment, the tops of the plants were cut off so that approximately 2.5 cm of plant from the top of the soil remain. The plants were allowed to regrow for 3 days at which time the amount of regrowth was weighed by measuring the amount of fresh weight of tissue that regrew.
(§3) The improvement in regrowth was calculated by subtracting the regrowth from a) wild type rice and wild type rice with isoxadifen; b) herbicide resistant rice; and c) herbicide resistant rice and isoxadifen.
(§4) Calculations were done for each application rate of quizalofop. The efficacy of safener alone and mutation alone on decreasing herbicide effect/increasing herbicide resistance were calculated. The relative fresh weight re-growth is the percentage of activity (for Colby).
(§5) The re-growth data was implemented in curve and the synergistic effect was calculated.
(§6) in which E represents the percentage of regrowth expected for the application of safener on mutant rice crop at the defined doses of herbicide. X is the percentage of regrowth for the application of safener on wildtype rice crop at the defined doses of herbicide. Y is the percentage of regrowth for mutant rice crop at the defined doses of herbicide without safener application. When the percentage of regrowth observed for the application of safener on mutant rice crop at the defined doses of herbicide is greater than expected as calculated using the Colby equation, there is a synergistic effect.

[2] = system: herbicide resistant rice crop (G2096S substitution, ML0831265-01493); test: Quizalofop dose response with or without isoxadifen, regrowth, herbicide resistant rice; assay type: in vivo
Protocol: Efficacy tests were conducted to determine the effect of quizalofop in the presence of isoxadifen (safener) on herbicide resistant rice crop (rice plants with the G2096S substitution (ML0831265-01493 (ATCC deposit PTA-12933, mutation G2096S) with a focus on synergistic effects.
as §1, §2, §3, §4, §5, §6

CCOC(=O)[C@@H](C)Oc1ccc(Oc2cnc3cc(Cl)ccc3n2)cc1 [Quizalofop, quizalofop P-ethyl]
Relative fresh weight re-growth after treatment ([1]; Non-Traited Rice, quizalofop 2 g/ha): 0.54
Relative fresh weight re-growth after treatment ([1]; Non-Traited Rice, quizalofop 6 g/ha): 0.18
Relative fresh weight re-growth after treatment ([1]; Non-Traited Rice, quizalofop 18 g/ha): 0.00
Relative fresh weight re-growth after treatment ([1]; Non-Traited Rice, quizalofop 54 g/ha): 0.00
Relative fresh weight re-growth after treatment ([1]; Non-Traited Rice, quizalofop 162 g/ha): 0.00
Relative fresh weight re-growth after treatment ([1]; Safener & Non-Traited Rice (isoxadifen 100 g/ha), quizalofop 2 g/ha): 1.04
Relative fresh weight re-growth after treatment ([1]; Safener & Non-Traited Rice (isoxadifen 100 g/ha), quizalofop 6 g/ha): 0.48
Relative fresh weight re-growth after treatment ([1]; Safener & Non-Traited Rice (isoxadifen 100 g/ha), quizalofop 18 g/ha): 0.00
Relative fresh weight re-growth after treatment ([1]; Safener & Non-Traited Rice (isoxadifen 100 g/ha), quizalofop 54 g/ha): 0.00
Relative fresh weight re-growth after treatment ([1]; Safener & Non-Traited Rice (isoxadifen 100 g/ha), quizalofop 162 g/ha): 0.00
Calculated effect of Safener (relative fresh weight re-growth) ([1]; quizalofop 2 g/ha): 0.50
Calculated effect of Safener (relative fresh weight re-growth) ([1]; quizalofop 6 g/ha): 0.30
Calculated effect of Safener (relative fresh weight re-growth) ([1]; quizalofop 18 g/ha): 0.00
Calculated effect of Safener (relative fresh weight re-growth) ([1]; quizalofop 54 g/ha): 0.00
Calculated effect of Safener (relative fresh weight re-growth) ([1]; quizalofop 162 g/ha): 0.00
increase of resistance (ED50) by the safener ([1]; wildtype rice with safener vs without): 2.7 folds
Relative fresh weight re-growth after treatment ([2]; Mutant & Safener (isoxadifen 100 g/ha), quizalofop 2 g/ha): 0.81
Relative fresh weight re-growth after treatment ([2]; Mutant & Safener (isoxadifen 100 g/ha), quizalofop 6 g/ha): 0.85
Relative fresh weight re-growth after treatment ([2]; Mutant & Safener (isoxadifen 100 g/ha), quizalofop 18 g/ha): 1.00
Relative fresh weight re-growth after treatment ([2]; Mutant & Safener (isoxadifen 100 g/ha), quizalofop 54 g/ha): 0.62
Relative fresh weight re-growth after treatment ([2]; Mutant & Safener (isoxadifen 100 g/ha), quizalofop 162 g/ha): 0.13
Relative fresh weight re-growth after treatment ([2]; Mutant, no safener, quizalofop 2 g/ha): 0.59
Relative fresh weight re-growth after treatment ([2]; Mutant, no safener, quizalofop 6 g/ha): 0.58
Relative fresh weight re-growth after treatment ([2]; Mutant, no safener, quizalofop 18 g/ha): 0.32
Relative fresh weight re-growth after treatment ([2]; Mutant, no safener, quizalofop 54 g/ha): 0.00
Relative fresh weight re-growth after treatment ([2]; Mutant, no safener, quizalofop 162 g/ha): 0.00
